# Binding of CDR-mutated scFvs to a peptide of the spike HR2 region

Antigen: PDVDLGDISGINAS, a 14-residue peptide of the SARS-CoV-2 spike HR2 region.

Ab-91 is the parent antibody, in scFv form: VL, then a 15-residue (Gly4Ser)3 linker, then VH. The light chain is unchanged in all variants.
VL: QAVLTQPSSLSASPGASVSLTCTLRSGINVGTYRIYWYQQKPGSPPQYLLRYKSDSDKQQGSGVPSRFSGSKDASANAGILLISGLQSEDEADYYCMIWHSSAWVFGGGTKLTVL
VH: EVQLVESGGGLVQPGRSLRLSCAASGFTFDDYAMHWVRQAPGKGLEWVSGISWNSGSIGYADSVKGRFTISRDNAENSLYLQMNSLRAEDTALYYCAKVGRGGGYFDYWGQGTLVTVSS

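The starting antibody came from a phage panning campaign against this peptide. The library (AAYL51) carries one to three amino acid substitutions per variant, with no insertions or deletions. Affinity was read by AlphaSeq, a pooled yeast mating assay with surface-displayed partners. The frequency of each diploid, read from paired DNA barcodes, reflects how well the two displayed proteins bind. A regression on co-assayed BCL2-family reference pairs converts the normalised counts of each replicate to an apparent Kd. Each pool was mated in three replicate cultures.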

The parent's heavy chain CDRs are GFTFDDYAMH, GISWNSGSIGYADSVK, VGRGGGYFDY; each variant's own CDRs replace them letter for letter. Numbers give log10(Kd / nM), so 0 is 1 nM and 3 is 1 µM. Smaller is tighter. Averages over replicates are reported, and they cover detected replicates only. Where no diploid with the target was found in that replicate, the entry reads "n.d.": below detection, most likely a poor binder, though not proof of it.

CDR-H1	CDR-H2	CDR-H3	log10 Kd, replicates	mean log10 Kd (nM)	signal with controls
GFDFDDYAMH	GISWNSGSIGNADSVK	VGIGGGYFDY	n.d. / n.d. / n.d.	n.d.	0 of 9
GFTFDAYAMH	GISWGSGSIGYADSVK	VGRGGRYFDY	2.22 / 2.66 / 1.68	2.18	1 of 9 (5.49)
GFTRDDYAMH	GQSWNSGSIGYADSVK	VGEGGGYFDY	n.d. / n.d. / n.d.	n.d.	0 of 9
GFTFDDYAMM	GISWNSGSIGYADSVK	VGRGGGYFDS	4.56 / 5.57 / 5.59	5.24	9 of 9 (4.99)
GFTFDCYAMH	GISWNSGSIGYADSVK	VGRGGGKFDA	n.d. / n.d. / n.d.	n.d.	0 of 9
GFTFDDYFMH	GISWNSGSIGYDDSVK	VGRGGGYQDY	n.d. / n.d. / n.d.	n.d.	2 of 9 (3.55)
GFTFDDYAMH	GISWNSGLIGYADSVK	SGRGGGYFPY	5.79 / 4.64 / 5.21	5.21	3 of 9 (5.22)
GFTFDDYAMD	GISWNSGSPGYADSVK	VGRGVGYFDY	4.97 / n.d. / 3.66	4.32	0 of 9
GFTFDVYAMH	GISENSGSMGYADSVK	VGRGGGYFDY	4.14 / n.d. / 5.16	4.65	6 of 9 (4.33)
GRTFDDYKMH	GISWNSGSIGYADFVK	VGRGGGYFDY	n.d. / 6.00 / 5.00	5.50	6 of 9 (4.85)
GFCFDDYAMH	GISWNEGSIGYADWVK	VGRGGGYFDY	3.12 / 2.99 / 4.06	3.39	2 of 9 (3.95)
GFTFDDYAMH	GIYWHSGSIGYADSVK	VGRGGGYFDT	4.86 / n.d. / n.d.	4.86	4 of 9 (4.62)
GFNFDDYNMH	GISWNSGSIGYADSVK	VGRGGGYFDY	4.98 / 5.58 / n.d.	5.28	2 of 9 (4.39)
GPTFDDYAMH	GISWESGSLGYADSVK	VGRGGGYFDY	n.d. / n.d. / n.d.	n.d.	1 of 9 (3.29)
GFTFDDKAMH	GISWNSGSIGYAPSVQ	VGRGGGYFDY	4.68 / n.d. / n.d.	4.68	3 of 9 (3.24)
GFTFDDYAMH	GISWNSGVIRYADSYK	VGRGGGYFDY	n.d. / n.d. / n.d.	n.d.	1 of 9 (2.76)
GKTFDIYAMH	GQSWNSGSIGYADSVK	VGRGGGYFDY	4.40 / 5.17 / n.d.	4.79	1 of 9 (3.49)
GFTFDDYAMH	GISWNRGSLGYADSVK	VGRVGGYFDY	n.d. / 5.13 / n.d.	5.13	2 of 9 (4.53)
GFTFDDYHMH	GISGNSSSIGYADSVK	VGRGGGYFDY	4.66 / 4.99 / n.d.	4.83	3 of 9 (4.85)
GFTFDDYAMH	GISWNSGSITYADSVM	LGRGGGYFDY	n.d. / 3.95 / n.d.	3.95	2 of 9 (3.42)
GFTFDDYAMH	GIFINSGSIGYADSVK	VGRGGGYFDY	n.d. / n.d. / n.d.	n.d.	2 of 9 (4.53)
GFTFADYAMH	GGSWNSISIGYADSVK	VGRGGGYFDY	3.50 / n.d. / n.d.	3.50	2 of 9 (4.43)
FKTFDDYAMH	GISWNSGSIGYAQSVK	VGRGGGYFDY	n.d. / n.d. / n.d.	n.d.	0 of 9
GFTFDDYALW	GISWNSGSIGYADSVK	FGRGGGYFDY	n.d. / n.d. / 5.29	5.29	5 of 9 (4.67)
GFTFDDYAMH	GISWNSGSIGSADSVN	VGRAGGYFDY	4.76 / n.d. / 5.92	5.34	5 of 9 (5.33)
GFTFDDYAMH	GISWNSGSIHYRDSVK	VGRGGGYFHY	n.d. / n.d. / 3.25	3.25	1 of 9 (3.78)
GFSFDDYAMH	GISWNSGSIGYADSVK	VGRGGGYDDY	n.d. / n.d. / 3.85	3.85	6 of 9 (4.20)
GFTFDDYAMH	TISWNSGSIGYADEVK	VGRGGGYFCY	n.d. / n.d. / n.d.	n.d.	4 of 9 (5.36)
GFTFDDYAMH	GISWLSGSIGYADWVK	VGRGGGYEDY	4.71 / 4.37 / 5.10	4.73	5 of 9 (4.35)
GFTFDNYAMH	GISWNPGSIGLADSVK	VGRGGGYFDY	3.76 / 3.85 / 3.71	3.77	4 of 9 (4.88)
GFTFDDYAMH	GISWNSGSIGYAMSVK	VGRGNGYFDY	n.d. / n.d. / n.d.	n.d.	1 of 9 (5.14)
GFTFDDGAMH	GISWNSGSIGYADRVE	VGRGGGYFDY	0.96 / 1.06 / 0.03	0.68	1 of 9 (2.62)
GFTWDDYAMH	GISWNSGGIGYADSVK	VGRGGGYFDY	n.d. / n.d. / n.d.	n.d.	0 of 9
GFTFDDYAMH	RISWNSGSIGYSDSVK	VGRGEGYFDY	n.d. / n.d. / 3.32	3.32	2 of 9 (4.43)
GFTFDDYQMH	GISWNYGSIGYADSVK	VGRGGGRFDY	n.d. / n.d. / n.d.	n.d.	0 of 9
GFTFDDYAMH	GISENSGSIGYHDSVK	VGRGGLYFDY	n.d. / 4.73 / n.d.	4.73	2 of 9 (3.94)
GFTFDDYAMH	QISWNSGSRGYADSVK	VGRGRGYFDY	n.d. / 5.58 / n.d.	5.58	2 of 9 (4.01)
GFTFDSYAMH	VISWNSGSIGYADEVK	VGRGGGYFDY	n.d. / n.d. / n.d.	n.d.	0 of 9
GFTFDDYAMH	GMSWNSGSIGYAESVK	VGRGGGYFDN	2.54 / 2.33 / 1.94	2.27	1 of 9 (3.58)
GFTQDDYAMH	GIVWNRGSIGYADSVK	VGRGGGYFDY	3.91 / 5.89 / 4.96	4.92	5 of 9 (4.98)
GTTRDDYAMH	GISWNSGSIGYADSVK	VGRGDGYFDY	4.50 / n.d. / 4.83	4.67	4 of 9 (4.78)
SFTFDDYAMH	GIRWNSGSIGYADRVK	VGRGGGYFDY	n.d. / n.d. / n.d.	n.d.	2 of 9 (3.46)
GFTFDDYAMH	GISWMSGSIGYADSVK	VGLGGGYFDY	3.64 / n.d. / n.d.	3.64	3 of 9 (4.26)
GFTFDDYAMH	GISWNSGSIHPADSVK	VGRGGGYFDC	n.d. / 3.03 / n.d.	3.03	0 of 9
GFTFDDYAMH	HISWNSGSIGYADSVK	VGHGGGYFDI	n.d. / n.d. / n.d.	n.d.	0 of 9
GFTFDDYAMS	GISWNSGSIGYGDSVK	NGRGGGYFDY	n.d. / n.d. / n.d.	n.d.	4 of 9 (4.16)
GFTFDDYAMH	LISWNSGSAGYADSVK	VGRGEGYFDY	n.d. / 5.64 / n.d.	5.64	2 of 9 (4.05)
GFTFDDYAMH	GIHTNSGSIGYADSPK	VGRGGGYFDY	n.d. / n.d. / n.d.	n.d.	0 of 9
VFTFDDYAMH	GISWNSGSIGAADSVK	VGMGGGYFDY	5.46 / 4.53 / n.d.	5.00	7 of 9 (5.26)
GFTFGDYAMH	GISWNSGSIGYADSVK	VGRGGGYFDY	3.71 / n.d. / n.d.	3.71	0 of 9
GFTFDDYAME	GISWNSGSIGYADSVK	VVRGMGYFDY	4.54 / 5.55 / 5.78	5.29	5 of 9 (4.51)
GFTFDDYAMH	GISWNSGKIGYADSVK	VGVGGGRFDY	5.35 / n.d. / n.d.	5.35	1 of 9 (3.95)

The closing 3 entries, repeated:

CDR-H1	CDR-H2	CDR-H3	log10 Kd, replicates	mean log10 Kd (nM)	signal with controls
GFTFGDYAMH	GISWNSGSIGYADSVK	VGRGGGYFDY	3.71 / n.d. / n.d.	3.71	0 of 9
GFTFDDYAME	GISWNSGSIGYADSVK	VVRGMGYFDY	4.54 / 5.55 / 5.78	5.29	5 of 9 (4.51)
GFTFDDYAMH	GISWNSGKIGYADSVK	VGVGGGRFDY	5.35 / n.d. / n.d.	5.35	1 of 9 (3.95)

As a blank, each scFv also met three strains without target: over library AAYL51, 21% of these pairings were detected, typically at 4.54 and seldom below 3.26. Also given: how often the same scFv was detected with the empty control strains, with their mean in brackets.

Reference: Engelhart et al. 2022, doi:10.1038/s41597-022-01779-4. File: FLAb, binding data.